# AlphaSeq binding of Ab-14 heavy chain variants to a spike HR2 peptide

All variants were tested on one target, the spike HR2 peptide PDVDLGDISGINAS (SARS-CoV-2).

Ab-14 is the parent antibody, in scFv form: VH, then a (GGGGS)3 linker, then VL. The light chain is unchanged in all variants.
VH: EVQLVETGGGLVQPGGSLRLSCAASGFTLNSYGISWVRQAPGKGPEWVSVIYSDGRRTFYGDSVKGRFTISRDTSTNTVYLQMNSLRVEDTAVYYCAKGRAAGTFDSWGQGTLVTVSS
VL: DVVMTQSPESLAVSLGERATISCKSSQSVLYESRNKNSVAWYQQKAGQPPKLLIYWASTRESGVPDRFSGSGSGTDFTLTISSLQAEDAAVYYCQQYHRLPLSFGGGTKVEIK

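In library AAYL49, one, two or three CDR residues were substituted; doubles and triples were drawn at random. AlphaSeq pools MATa yeast showing the antibodies with MATalpha yeast showing the peptide. After mating in shaken culture at 30 °C for 16 h, diploids were selected and their barcode pairs sequenced. Each replicate has its own calibration line, from reference interactions of the BCL2 family. The assay was run in three technical replicates.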

Each variant is given by its three heavy chain CDRs, as the data file delimits them; those of the parent are GFTLNSYGIS, VIYSDGRRTFYGDSVK, GRAAGTFDS.
Values are log10 of the apparent Kd in nM; lower means stronger binding.
Replicates are averaged; those with no signal do not enter the mean.
"no signal" means that the variant was in the library but no mating with the target was seen in any replicate; the authors take this as a sign of poor binding, and no number exists.
Three control strains display no target. For library AAYL49, 15% of the pairings with them gave a signal, with a median of 4.06 and one signal in twenty below 2.83, so weak values seen in few replicates may be background. For each scFv, signals with the empty controls are counted beside the result.
Parent in this assay: reference entry 0.65, copy in this library 4.11 (one replicate of three).

CDR-H1	CDR-H2	CDR-H3	mean log10 Kd (nM)	detected	control signals
GFTLNAYGIS	VIYSDGRRTFYGDSVW	GRANGTFDS	no signal	0 of 3	1 of 9
GFTLNSYGIS	VIYSKGRRTFYGDSVL	GRAAGEFDS	3.67	1 of 3	2 of 9
GFTLNGYFIS	VIYSDGRRTFYGDSVK	PRAAGTFDS	4.04	1 of 3	2 of 9
GFTQNSYGIS	VIYSDGRRTFCGDSVW	GRAAGTFDS	3.80	1 of 3	0 of 9
GFLLNSYGIS	VEYSDGRRTFYGDSRK	GRAAGTFDS	5.11	1 of 3	3 of 9
GFTLNSYGIS	DIYSDGRRTFPGDSVK	GRAAGTFQS	no signal	0 of 3	0 of 9
GFTLNSYGIS	VIYEDGDRTFYGDSVK	GRAAGTFDG	4.58	1 of 3	2 of 9
GFKLNSYGIS	VIYSDYRRTFYGDSVH	GRAAGTFDS	no signal	0 of 3	0 of 9
GFTLNSYGIS	VIYSDGRRTWYGDSVK	GRAAFTFDT	no signal	0 of 3	0 of 9
AFTLNSYGIS	VIYSDGRVTFYGDSVK	GRAAGTFDS	no signal	0 of 3	0 of 9
GFFLNSYGIS	VIYSDGRRTFYGDSVK	PRAAGTHDS	1.62	3 of 3	0 of 9
GYTLLSYGIS	VIYSDGRRTFYGDSVK	GRAANTFDS	no signal	0 of 3	0 of 9
GFTLNSYGIS	VIYSDGRRTFYGDSTK	GNAAGTFDM	3.40	3 of 3	0 of 9
GFTLNSYGIS	VIYSDGYRTFYGDSVV	GRAAGTIDS	3.80	1 of 3	0 of 9
GFTLNSYGIS	VQYSDGRRTFYGDSVK	GRRAGTFDS	no signal	0 of 3	0 of 9
GFTLNSYGIY	VIYPDGRRTKYGDSVK	GRAAGTFDS	4.71	2 of 3	3 of 9
GFTLNSYGIL	VIYSDGRRTFYGDSVK	PRVAGTFDS	no signal	0 of 3	1 of 9
GFTGNSYGIS	VIESDGRRTFYGDSVK	GRRAGTFDS	no signal	0 of 3	0 of 9
GFTLNSHGIS	VIYSDGRRTFYGDSVK	GRAAGTRDS	no signal	0 of 3	0 of 9
GFTLNSYKIS	VIYSDGRRRFYGDSVK	GRAAGTFDS	no signal	0 of 3	0 of 9
GFYTNSYGIS	VIYSDGRRTFYGQSVK	GRAAGTFDS	4.83	2 of 3	2 of 9
GVTLNSYGIS	VIYSDGRRDFYGSSVK	GRAAGTFDS	no signal	0 of 3	0 of 9
GFTLNSYGIS	VTYSHGRRTFGGDSVK	GRAAGTFDS	no signal	0 of 3	2 of 9
GFTLNSYGIS	VIYMDGRRDFYGDSVK	GRAAGTFTS	no signal	0 of 3	2 of 9
GFWLNSYGIS	VIYSNGRRVFYGDSVK	GRAAGTFDS	no signal	0 of 3	0 of 9
TFTLNSYGIS	VIYSDGRRTFYSDSVK	GRQAGTFDS	0.55	3 of 3	3 of 9
GFTLNSYGID	VIYSDGRRTFYGDLVK	GRAAGYFDS	no signal	0 of 3	0 of 9
LFTLNSYGIS	VIYSDGRRTFYGDSVK	GRQAKTFDS	3.21	3 of 3	4 of 9
GCTLNSYGIS	VIYSDGRRTFYGDSVK	GRAARTFDS	1.90	2 of 3	0 of 9
GFTLNSYGIS	VIYSDGRRTFYCDSSK	GRAAGTMDS	no signal	0 of 3	0 of 9
GFTLNSYGIS	VIYSDTRRTFYGDQVK	GPAAGTFDS	4.64	3 of 3	3 of 9
GFTLESYGSS	VIYCDGRRTFYGDSVK	GRAAGTFDS	3.20	1 of 3	1 of 9
GFTLNSYGIS	VIYSDGRRTFAGDSLK	GRAAGTEDS	no signal	0 of 3	0 of 9
KFTLNSYGIS	VIYSDGRRTFYGDMVK	GRAAGTVDS	4.15	3 of 3	1 of 9
GFTLNSYGIS	DIYSDGRIMFYGDSVK	GRAAGTFDS	no signal	0 of 3	0 of 9
GMYLNSYGIS	VIYSDGRRTFYGDSVK	GRAAMTFDS	3.61	1 of 3	5 of 9
GFTLNSYGAS	VIYSDGTVTFYGDSVK	GRAAGTFDS	no signal	0 of 3	2 of 9
GFTLNSHGIS	VIYSDGMRTFYGLSVK	GRAAGTFDS	no signal	0 of 3	2 of 9
IFTLNSYGIS	VIYSDGRRTFYGDSVK	GRAAGTSYS	no signal	0 of 3	1 of 9
GFTINSYGIS	VKYSDGRRTFYGDSVK	GRAAGTKDS	no signal	0 of 3	0 of 9
GMTLNSYGIS	VICSDGRRTFYGDSVK	GRAAGTFQS	no signal	0 of 3	4 of 9
GFTLNSYYIS	VIYSDLPRTFYGDSVK	GRAAGTFDS	5.01	2 of 3	2 of 9
GFTLNSYGID	VIYGDGRRTFYGDSVK	GRAAGTFKS	no signal	0 of 3	0 of 9
GFTLNSYGIS	VIYSDGRRIFYGDSVK	PRCAGTFDS	5.06	1 of 3	0 of 9
GFTLNSYGIS	VIYSDGRRTLYGDSVS	GRAAGTFWS	no signal	0 of 3	3 of 9
AFTANSYGIS	VIYNDGRRTFYGDSVK	GRAAGTFDS	no signal	0 of 3	0 of 9
GFTCNRYGIS	VIYSDGRRTFYGDSVK	GRAAVTFDS	no signal	0 of 3	0 of 9
GFTLNSYGIS	GIYSDGRCTFYGDSVK	GRAAGTSDS	no signal	0 of 3	2 of 9
GCTLNSYGIS	VIYSDGRFTFYGDSCK	GRAAGTFDS	no signal	0 of 3	1 of 9
GFFLNSYGIS	VIYSDGRRTFYGSSLK	GRAAGTFDS	no signal	0 of 3	0 of 9
GSTLNSYGIS	VIYSDGPRTFYGDSVD	GRAAGTFDS	no signal	0 of 3	0 of 9
GFTGNSYGIE	VIYSDGRRTFYGDSVK	GRAAYTFDS	no signal	0 of 3	3 of 9
GFTLNSYGIS	VIYSAGRRTYYGDSVK	GRAAGTFDS	no signal	0 of 3	0 of 9
GFTLNSYGIS	VIKSDGRRTFYGDSVK	GRCAGTFDS	3.31	1 of 3	3 of 9
GFTLNSYGIS	QIYSHGRRTFYNDSVK	GRAAGTFDS	5.79	1 of 3	3 of 9
GFTLNSNGIS	VIYSDGRRTFYGDSGK	GRAAGTFDS	no signal	0 of 3	2 of 9
GFTLNSYGIT	VIYSDGRRTFYGCSVK	LRAAGTFDS	no signal	0 of 3	1 of 9
PFTLNSYGIS	VLYSDGRRTFYGDSVM	GRAAGTFDS	no signal	0 of 3	0 of 9
GHTLNSYGIS	VIYSDGRRTFYADSEK	GRAAGTFDS	no signal	0 of 3	2 of 9
GFTLNSYGHS	VIYSDGRTTFYGDSVK	GRAAGTFDS	4.27	2 of 3	3 of 9
GFTLNSYGIS	VIYSDGRQTFYGLSVK	GMAAGTFDS	4.94	3 of 3	6 of 9
GFTLNSYGIS	VIYSDGRRTYPGDSVK	GRSAGTFDS	4.92	2 of 3	3 of 9
GFTLNRYDIV	VIYSDGRRTFYGDSVK	GRAAGTFDS	no signal	0 of 3	0 of 9
GFTLNSYGAS	VIYSDGRRTFYGDSVK	NRAAKTFDS	5.33	2 of 3	3 of 9
GFTLNSYGID	VIYSDERRYFYGDSVK	GRAAGTFDS	no signal	0 of 3	0 of 9
GFTLNSYGIS	VIYSDGRRTFYGDSVK	FRAAGPWDS	no signal	0 of 3	0 of 9
GKLLNSYGIS	VIYSDGRRTFYGDSVK	GRAAGTFDS	1.68	3 of 3	0 of 9
GFTLNSYMIS	VIYSDGRRTFYGDSVK	FLAAGTFDS	no signal	0 of 3	2 of 9
GFTLNSYDIS	VIYSDGRRTFYGSSVK	GDAAGTFDS	4.91	2 of 3	1 of 9
GFTLNSYDIS	VIYEDGRRTFYGDSVK	GRAAGTFDY	no signal	0 of 3	3 of 9
GFTMNSYTIS	VIYSDGRRTFYGDSIK	GRAAGTFDS	3.51	1 of 3	1 of 9
GFTLNSYGIS	VIYSDGRRTVYTDAVK	GRAAGTFDS	1.30	3 of 3	3 of 9
GASLNSYGIS	VVYSDGRRTFYGDSVK	GRAAGTFDS	3.21	1 of 3	4 of 9
GFTCNSYGIS	VIYSDGRRTFYGNSVK	GRAAGSFDS	no signal	0 of 3	0 of 9
GFTLNSYGIS	VIDSDGRRTIYGDSVK	GRAAGEFDS	3.57	1 of 3	1 of 9
EFTLNSYGIT	VIYSDIRRTFYGDSVK	GRAAGTFDS	no signal	0 of 3	0 of 9
GFTLNSYGIS	VIYSDGRRTFYGDSVC	GRAAGTWQS	no signal	0 of 3	0 of 9
GFTLNSLGIS	VIYSDGRRTCYGDSVK	GRAAGTFRS	3.01	1 of 3	3 of 9
GFTLNSYHIS	VIYSDGRRTFQGDSVK	GRVAGTFDS	no signal	0 of 3	0 of 9
GFTSNSYGIS	VIYSFGRRTFYIDSVK	GRAAGTFDS	no signal	0 of 3	3 of 9

A selection of 5 entries from above:

CDR-H1,CDR-H2,CDR-H3,mean log10 Kd (nM),detected,control signals
GKLLNSYGIS,VIYSDGRRTFYGDSVK,GRAAGTFDS,1.68,3 of 3,0 of 9
GFWLNSYGIS,VIYSNGRRVFYGDSVK,GRAAGTFDS,no signal,0 of 3,0 of 9
GFTLNSYGIS,DIYSDGRRTFPGDSVK,GRAAGTFQS,no signal,0 of 3,0 of 9
GFTLNSYDIS,VIYEDGRRTFYGDSVK,GRAAGTFDY,no signal,0 of 3,3 of 9
GFTLNSYGIS,GIYSDGRCTFYGDSVK,GRAAGTSDS,no signal,0 of 3,2 of 9

The measurements come from Engelhart et al. 2022 (doi:10.1038/s41597-022-01779-4) through the FLAb antibody collection.